Bounds are passed on as bounds.

For one data set, the system named is Huh7.5 cells. Nature of the data set: Cell viability, CellTiter-Glo luminescent assay. Particulars: for Cell viability (fold DMSO) Mean: deconvolution screen, singletons, uninfected Huh7.5. Background: In ATP-based viability assays light output follows the ATP content of the culture.
Data set [1] in a line: Cell viability, CellTiter-Glo luminescent assay. Conditions: human, CC50 Huh 7.5, uninfected Huh7.5, 2 days, CellTiter-Glo.
Where [2] appears, read: Table 1, NPP3C analogues, 50 μM, Huh7.5, 2 days.
The mark [3] stands for this setting: Table S3, NPP3C analogues, 50 µM, Huh7.5.

As for `CNC(=O)c1cn(C)c2ccccc12` [Compound 9T-1495, CNC(=O)c1cn(C)c2ccccc12], the “Cell viability (fold DMSO) Mean” value in the data set on Huh7.5 cells (50 µM) was 1.01 fold DMSO.
For `c1ccc(NCc2cccnc2)cc1` [Compound 63], the “Cell viability (Fold DMSO)” value in the data set with Huh7.5 cells (6A1HI analogues, test concentration = 50 µM, Huh7.5 cells) came to 1.04 Fold DMSO; in the data set with Huh7.5 cells (setting [2]) it was 0.90 fold DMSO; with Huh7.5 cells (setting [3]), 0.90 Fold DMSO.
In general, CC50 refers to the concentration giving 50% cytotoxicity. Take `O=C(Nc1ccccc1)c1cccnc1` [NPP3C, N-phenylpyridine-3-carboxamide]: the CC50 at 48 h in data set [1] was > 150 µM. Besides, the “Cell viability (Fold DMSO)” value with Huh7.5 cells (setting [2]) amounted to 0.80 fold DMSO; with Huh7.5 cells (setting [3]), 0.80 Fold DMSO. Besides, in the data set with Huh7.5 cells (50 µM), the “Cell viability (fold DMSO) Mean” value was 1.02 fold DMSO. The cytotoxic concentration (CC50) in the data set on Huh7.5 cells (read-out: CC50 Huh 7.5, uninfected Huh7.5, 2 days, CellTiter-Glo) was > 250 µM.
As to `O=C1CCc2ccccc21` [PS-5770, O=C1CCc2ccccc12], the “Cell viability (fold DMSO) Mean” value with Huh7.5 cells (50 µM) is 1.06 fold DMSO.

Values taken from article PMC9933715, “N-Phenylpyridine-3-Carboxamide and 6-Acetyl-1H-Indazole Inhibit the RNA Replication Step of the Dengue Virus Life Cycle” (Antimicrobial Agents and Chemotherapy, 2023).
